“Also recorded” adds a separate entry of the source.
Key:
[1] = target: human MacroD1 (Homo sapiens, UniProt Q9BQ69); format: biochemical
[2] = target: human MacroD2 (Homo sapiens, UniProt A1Z1Q3); format: biochemical

Amino acid sequences for entries named in this document (tags omitted). A change or cut given only in a name is not applied to a line headed by its entry.
UniProt Q9BQ69: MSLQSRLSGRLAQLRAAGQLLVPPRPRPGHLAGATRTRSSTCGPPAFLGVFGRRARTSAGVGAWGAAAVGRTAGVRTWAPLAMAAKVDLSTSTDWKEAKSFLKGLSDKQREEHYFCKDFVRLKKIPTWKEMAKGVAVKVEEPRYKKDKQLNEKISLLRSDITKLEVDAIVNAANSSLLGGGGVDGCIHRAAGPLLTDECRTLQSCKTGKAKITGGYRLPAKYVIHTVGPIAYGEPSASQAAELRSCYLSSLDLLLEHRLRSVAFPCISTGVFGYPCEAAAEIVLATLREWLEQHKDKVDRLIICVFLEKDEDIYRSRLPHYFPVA
UniProt A1Z1Q3: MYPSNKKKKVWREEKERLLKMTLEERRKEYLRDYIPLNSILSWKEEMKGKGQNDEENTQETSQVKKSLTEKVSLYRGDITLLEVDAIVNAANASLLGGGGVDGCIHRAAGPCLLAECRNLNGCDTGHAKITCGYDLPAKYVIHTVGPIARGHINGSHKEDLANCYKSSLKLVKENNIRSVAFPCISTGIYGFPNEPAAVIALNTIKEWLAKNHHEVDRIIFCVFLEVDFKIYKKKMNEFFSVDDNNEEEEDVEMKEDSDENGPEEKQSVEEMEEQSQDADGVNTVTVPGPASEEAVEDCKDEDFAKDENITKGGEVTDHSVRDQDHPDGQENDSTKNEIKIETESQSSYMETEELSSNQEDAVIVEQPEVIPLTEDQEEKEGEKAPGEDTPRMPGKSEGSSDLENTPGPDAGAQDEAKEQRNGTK

Structure (SMILES): COP(=O)(O)OP(=O)(O)OC[C@H]1O[C@@](C#N)(c2ccc3c(N)ncnn23)[C@H](O)[C@@H]1O [compound 4, β-methyl-GS-441524-DP]
- Inhibition of human MacroD1 (in words) [1]: did not affect either enzyme; also recorded: no detectable inhibition
- Inhibition of human MacroD2 (in words) [2]: did not affect either enzyme; also recorded: no detectable inhibition
